Assay results: US7488745B2, “Compounds for the treatment of inflammatory disorders” (Schering Corporation, priority 2004, dated 2009)

Amino acid sequences for entries named in this document (tags omitted). Residues count along the entry.
UniProt P78536, 215-477 S266A/N452Q limits assumed: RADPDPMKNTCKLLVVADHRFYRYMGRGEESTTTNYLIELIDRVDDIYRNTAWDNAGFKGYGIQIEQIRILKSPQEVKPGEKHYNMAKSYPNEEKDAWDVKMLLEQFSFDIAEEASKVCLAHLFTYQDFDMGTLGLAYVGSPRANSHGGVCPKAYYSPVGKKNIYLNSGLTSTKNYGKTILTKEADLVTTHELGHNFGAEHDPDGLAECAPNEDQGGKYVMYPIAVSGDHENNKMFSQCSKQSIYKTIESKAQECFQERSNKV

Target: purified catalytic domain of recombinant human TACE (rhTACEc) (Homo sapiens, UniProt P78536, N452Q/S266A)
Assay: TACE kinetic assay: cleavage of internally quenched peptide substrate SPDL-3 (fluorescence)
[1] = Ki (nM), TACE inhibitory activity, class letters
[2] = Ki (nM), TABLE 6000, Ki printed as class symbols A-D
[3] = Ki Rating, TACE inhibitory activity, Table 3000
[4] = Ki (nM), Specific TACE inhibitory activity (Ki values)

| SMILES | Ki [1] [nM] | Ki [2] [nM] | Ki [3] [nM] | other results |
| --- | --- | --- | --- | --- |
| CC1(CN2Cc3cc(Cl)c(Cl)cc3C2=O)NC(=O)NC1=O (stereo not shown) [Compound 107] | 10 to 100 | – | – | – |
| CC1(CN2Cc3cc(O)c(Cl)cc3C2=O)NC(=O)NC1=O (stereo not shown) [Compound 5013] | – | – | 100 to 1000 | – |
| COc1ccc2c(c1)C(=O)N(C[C@@]1(c3cnn(C(C)C)n3)NC(=O)NC1=O)C2 [Compound 9264] | – | < 10 | – | – |
| O=C1NC(=O)C(CN2Cc3ccc(F)cc3C2=O)(c2ccc(F)cc2F)N1 (stereo not shown) [Compound 4002] | – | – | < 10 | – |
| O=C1NC(=O)C(CN2Cc3cc(NCC4CC4)c(F)cc3C2=O)(c2ccc(F)cc2)N1 (stereo not shown) [Compound 2030B] | – | – | 10 to 100 | – |
| Cc1nn(C)c(C)c1-c1ccc([C@]2(CN3Cc4ccc(F)cc4C3=O)NC(=O)NC2=O)cc1 [Compound 3031] | – | – | < 10 | – |
| COc1ccc2c(c1)CN(CC1(C3CCN(C(C)=O)CC3)NC(=O)NC1=O)C2=O (stereo not shown) [Compound 268] | < 10 | – | – | – |
| O=C1NC(=O)C(CN2Cc3c(O)cccc3C2=O)(c2ccc(F)cc2)N1 (stereo not shown) [Compound 199] | 100 to 1000 | – | – | – |
| COc1ccc2c(c1)C(=O)N(C[C@@]1(c3cc(-c4ccc[nH]4)no3)NC(=O)NC1=O)C2 [Compound 9251] | – | < 10 | – | – |
| CC1(CN2Cc3ccc(O)cc3C2=O)NC(=O)NC1=O (stereo not shown) [Compound 32] | 100 to 1000 | – | – | – |
| O=C1NC(=O)[C@](CN2Cc3cc(O)ccc3C2=O)(c2ccccc2)N1 [Compound 189] | < 10 | – | – | – |
| CCC#CCOc1ccc2c(c1)CN(C[C@@]1(c3ccc(F)cc3)NC(=O)NC1=O)C2=O [Compound 232] | < 10 | – | – | Ki [4]: 1 nM |
| Cc1cc(COc2ccc3c(c2)CN(CC2(c4ccccc4)NC(=O)NC2=O)C3=O)c2ccccc2n1 (stereo not shown) [Compound 191] | < 10 | – | – | – |
| COc1ccc2c(c1)C(=O)N(C[C@@]1(c3csc(C)n3)NC(=O)NC1=O)C2 [Compound 9205] | – | < 10 | – | – |
| O=C1NC(=O)[C@](CN2Cc3ccc(F)cc3C2=O)(c2ccc(-c3ccc(-c4ccccn4)s3)cc2)N1 [Compound 3025] | – | – | 10 to 100 | – |
| O=C1NC(=O)[C@](CN2Cc3ccc(O)cc3C2=O)(c2cn(-c3cnccn3)nn2)N1 [Compound 9932] | – | < 10 | – | – |
| COc1ccc2c(c1)C(=O)N(C[C@@]1(c3cnn(C4CCCC4)c3)NC(=O)NC1=O)C2 [Compound 9003G] | – | < 10 | – | – |
| O=C1NC(=O)C(CN2Cc3cc(OCc4ccc5nonc5c4)ccc3C2=O)(c2ccc(F)cc2)N1 (stereo not shown) [Compound 7000] | – | – | 100 to 1000 | – |
| Cc1cc(COc2ccc3c(c2)CN(CC2(C)NC(=O)NC2=O)C3=O)c2ccccc2n1 (stereo not shown) [Compound 194] | < 10 | – | – | – |
| COc1ccc2c(c1)C(=O)N(C[C@@]1(c3cnn(C(C)C)c3)NC(=O)NC1=O)C2 [Compound 9003E] | – | < 10 | – | Ki [4]: 2.8 nM |
| O=C1NC(=O)[C@](CN2Cc3ccc(F)cc3C2=O)(c2ccc(-c3ccccc3)s2)N1 [Compound 251] | < 10 | – | – | – |
| O=C1NC(=O)[C@](CN2Cc3ccc(OCC4CC4)cc3C2=O)(c2ccc(F)cc2)N1 [Compound 243] | < 10 | – | – | Ki [4]: 3 nM |
| CC#CCOc1ccc2c(c1)C(=O)N(C[C@@]1(c3ccc(-c4ncnc5c4ncn5C(C)C)cc3)NC(=O)NC1=O)C2 [Compound 3046] | – | – | < 10 | – |
| O=C1NC(=O)[C@](CN2Cc3ccc(OCC#CC4CC4)cc3C2=O)(c2ccc(F)cc2)N1 [Compound 8009] | – | – | < 10 | Ki [4]: 0.79 nM |
| CC1(CN2Cc3cc(O)ccc3C2=O)NC(=O)NC1=O (stereo not shown) [Compound 31] | 10 to 100 | – | – | – |
| O=C1NC(=O)[C@](CN2Cc3ccc(F)cc3C2=O)(c2ccc(-c3cc(C(F)(F)F)cc4[nH]cnc34)cc2)N1 [Compound 3006] | – | – | < 10 | – |

The next lines start with results.

| Ki [1] [nM] | Ki [2] [nM] | Ki [3] [nM] | SMILES | other results |
| --- | --- | --- | --- | --- |
| – | < 10 | – | Cn1nnc(-c2ccccc2-c2ccc(C3(CN4Cc5ccc(F)cc5C4=O)NC(=O)NC3=O)cc2)n1 (stereo not shown) [Compound 9752] | – |
| – | < 10 | – | COc1ccc2c(c1)C(=O)N(C[C@@]1(c3ccc(-c4ccc5cnoc5c4)cc3)NC(=O)NC1=O)C2 [Compound 9754] | – |
| 100 to 1000 | – | – | O=C1NC(=O)[C@@](CN2Cc3ccc(F)cc3C2=O)(c2ccc(-c3cccc4cccnc34)cc2)N1 [Compound 153] | – |
| < 10 | – | – | O=C1NC(=O)[C@](CN2Cc3ccc(F)cc3C2=O)(c2ccc(-c3cc(O)ncc3Cl)cc2)N1 [Compound 123] | Ki [4]: 1.2 nM |
| < 10 | – | – | O=C1NC(=O)[C@](CN2Cc3ccc(OCC#CCO)cc3C2=O)(c2ccc(-c3ccncc3)cc2)N1 [Compound 241] | – |
| – | < 10 | – | COc1ccc2c(c1)C(=O)N(C[C@@]1(c3ccc(-c4ccc5c(cnn5C(C)C)c4)cc3)NC(=O)NC1=O)C2 [Compound 9742] | – |
| – | < 10 | – | CC#CCOc1ccc2c(c1)C(=O)N(C[C@@]1(c3ccc(-c4ccc5nn(C(C)C)cc5c4)cc3)NC(=O)NC1=O)C2 [Compound 9751] | – |
| – | – | < 10 | CC#CCOc1ccc2c(c1)C(=O)N(C[C@@]1(c3ccc(-c4cc(C)ccn4)cc3)NC(=O)NC1=O)C2 [Compound 4018] | – |
| – | < 10 | – | COc1ccc2c(c1)C(=O)N(C[C@@]1(c3cc4cnccc4[nH]3)NC(=O)NC1=O)C2 [Compound 9232] | – |
| – | – | 10 to 100 | COc1ccc2c(c1)C(=O)N(C[C@]1(c3ccc(-c4nc(N)cc5ccccc45)cc3)NC(=O)NC1=O)C2 [Compound 4034] | – |
| – | < 10 | – | COc1ccc2c(c1)C(=O)N(C[C@@]1(c3cc4cnccc4s3)NC(=O)NC1=O)C2 [Compound 9222] | – |
| – | – | < 10 | COc1ccc2c(c1)C(=O)N(C[C@@]1(c3ccc(-c4ccc5nn(C(C)C)cc5c4)cc3)NC(=O)NC1=O)C2 [Compound 7015] | – |
| > 1000 | – | – | O=C1NC(=O)[C@@](CN2Cc3ccc(F)cc3C2=O)(c2ccc(-c3ccc(C(F)(F)F)cc3)cc2)N1 [Compound 125] | – |
| – | < 10 | – | COc1ccc2c(c1)C(=O)N(C[C@@]1(c3cc4ccccc4s3)NC(=O)NC1=O)C2 [Compound 9004E] | – |
| – | – | 100 to 1000 | Cn1cncc1-c1ccc([C@@]2(CN3Cc4ccc(F)cc4C3=O)NC(=O)NC2=O)cc1 [Compound 3000] | – |
| – | – | < 10 | Cn1ncc2cc(-c3ccc([C@]4(CN5Cc6ccc(OC(F)F)cc6C5=O)NC(=O)NC4=O)cc3)ccc21 [Compound 7026] | – |
| – | – | < 10 | COc1ccc2c(c1)C(=O)N(C[C@@]1(c3ccc(-c4cccnc4O)cc3)NC(=O)NC1=O)C2 [Compound 8017] | – |
| – | < 10 | – | COc1ccc2c(c1)C(=O)N(C[C@@]1(c3ccc(-c4ncccc4C(F)(F)F)cc3)NC(=O)NC1=O)C2 [Compound 9914] | – |
| – | – | < 10 | COc1ccc2c(c1)C(=O)N(C[C@@]1(c3ccc(-c4c(C)noc4C)cc3)NC(=O)NC1=O)C2 [Compound 3016] | – |
| – | – | < 10 | CC#CCOc1ccc([C@]2(CN3Cc4ccc(OC)cc4C3=O)NC(=O)NC2=O)cc1 [Compound 5023] | – |
| < 10 | – | – | COc1ccc2c(c1)CN(CC1(c3ccc(F)cc3)NC(=O)NC1=O)C2=O (stereo not shown) [Compound 11] | – |
| – | 100 to 1000 | – | COc1ccc2c(c1)C(=O)N(C[C@@]1(c3ccc(-c4cnc(C)[nH]4)cc3)NC(=O)NC1=O)C2 [Compound 9515] | – |
| – | – | < 10 | COc1ccc2c(c1)C(=O)N(C[C@@]1(c3ccc(-c4cc(C)c5nn(C)cc5c4)cc3)NC(=O)NC1=O)C2 [Compound 7019] | – |
| – | – | < 10 | COc1ccc2c(c1)C(=O)N(C[C@@]1(c3ccc(OC(C)C)cc3)NC(=O)NC1=O)C2 [Compound 5021] | – |
| – | < 10 | – | COc1ccc2c(c1)C(=O)N(C[C@@]1(c3ccc(-c4ccc5c(c4)nnn5C)cc3)NC(=O)NC1=O)C2 [Compound 9715] | – |
| – | < 10 | – | COc1ccc2c(c1)C(=O)N(C[C@@]1(c3ccc(-c4cccc5c4SCC(=O)N5)cc3)NC(=O)NC1=O)C2 [Compound 9760] | – |
| 10 to 100 | – | – | O=C1NC(=O)C(CN2Cc3ccc(F)cc3C2=O)(c2ccc(-c3cnc4ccccc4c3)cc2)N1 (stereo not shown) [Compound 163] | – |
